Experimental findings from paper PMC33344 (BMC Chemical Biology, 2001) are described below.

Amino acid sequences for entries named in this document (tags omitted).
UniProt P14600, whole entry: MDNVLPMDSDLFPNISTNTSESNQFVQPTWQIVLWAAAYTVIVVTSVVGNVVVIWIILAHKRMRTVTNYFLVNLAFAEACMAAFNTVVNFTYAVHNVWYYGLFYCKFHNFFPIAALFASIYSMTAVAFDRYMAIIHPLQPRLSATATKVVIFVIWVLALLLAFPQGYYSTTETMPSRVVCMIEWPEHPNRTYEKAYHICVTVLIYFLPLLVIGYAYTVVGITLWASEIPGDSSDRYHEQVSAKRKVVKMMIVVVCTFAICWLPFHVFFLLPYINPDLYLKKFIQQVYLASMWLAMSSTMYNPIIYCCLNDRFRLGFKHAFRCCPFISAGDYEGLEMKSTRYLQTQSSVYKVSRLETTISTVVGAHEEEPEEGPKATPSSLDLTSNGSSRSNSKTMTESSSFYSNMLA

Entries after “also recorded” stand apart in the source; their conditions may differ.

The target in one assay is rat SP receptor (rSPR) (Rattus norvegicus, UniProt P14600). Kind of assay: Radioligand competition binding with [125I] SP on CHO cells expressing the rSPR. Particulars: 50 pM [125I] SP, competitor up to 1 μM.
Assay [1] concerns the target T1, rSPR expressed in CHO cells (Rattus norvegicus, UniProt P14600). Kind of assay: Epifluorescence microscopy, direct labeling of rSPR-transfected CHO cells. The class given is cell-based. The note with it: 100 nM, 2 hrs at 4°C, rinsed and fixed.
Assay [2] has as its target T1, rSPR expressed in CHO cells. Put plainly: Ca++ elevation in rSPR-expressing CHO cells. Format: cell-based. The note with it: concentrations up to 10 nM, % of ionomycin response.

With “Alexa 488-SP: Substance P with Alexa 488 covalently linked at Lys3; Molecular Probes product S-13426”, the “competition with [125I] SP for binding at the rSPR (in words)” value with rat SP receptor (rSPR) is reported as “did not compete; also recorded: unable to displace the radioisotope”. Moreover, in assay [1], the “membrane staining of rSPR-expressing CHO cells” value was “did not stain”. Also, in assay [2], the “Ca++ response at the rSPR (in words)” value is “did not elicit specific Ca^++ responses”.
